Reference: PMC12102759 (Protein Science : A Publication of the Protein Society, 2025)

Tested on: AP2M1 MU
Assay type: binding, human

## VSDIDYVPLKSATA(averaged) L9R (VSDIDYVPRKSATA)
  PSSM value of the substitution, averaged over the two overlapping peptides: 0

## VSDIDYVPLKSATA(averaged) L9S (VSDIDYVPSKSATA)
  PSSM value of the substitution, averaged over the two overlapping peptides: 0

## VSDIDYVPLKSATA(averaged) L9T (VSDIDYVPTKSATA)
  PSSM value of the substitution, averaged over the two overlapping peptides: 0

## VSDIDYVPLKSATA(averaged) L9V (VSDIDYVPVKSATA)
  PSSM value of the substitution, averaged over the two overlapping peptides: 0.03261

## VSDIDYVPLKSATA(averaged) L9W (VSDIDYVPWKSATA)
  PSSM value of the substitution, averaged over the two overlapping peptides: 0.172

## VSDIDYVPLKSATA(averaged) L9Y (VSDIDYVPYKSATA)
  PSSM value of the substitution, averaged over the two overlapping peptides: 0

## VSDIDYVPLKSATA(averaged) P8A (VSDIDYVALKSATA)
  PSSM value of the substitution, averaged over the two overlapping peptides: 0

## VSDIDYVPLKSATA(averaged) P8D (VSDIDYVDLKSATA)
  PSSM value of the substitution, averaged over the two overlapping peptides: 0.0009116

## VSDIDYVPLKSATA(averaged) P8E (VSDIDYVELKSATA)
  PSSM value of the substitution, averaged over the two overlapping peptides: 0.4861

## VSDIDYVPLKSATA(averaged) P8F (VSDIDYVFLKSATA)
  PSSM value of the substitution, averaged over the two overlapping peptides: 0

## VSDIDYVPLKSATA(averaged) P8G (VSDIDYVGLKSATA)
  PSSM value of the substitution, averaged over the two overlapping peptides: 0

## VSDIDYVPLKSATA(averaged) P8H (VSDIDYVHLKSATA)
  PSSM value of the substitution, averaged over the two overlapping peptides: 0

## VSDIDYVPLKSATA(averaged) P8I (VSDIDYVILKSATA)
  PSSM value of the substitution, averaged over the two overlapping peptides: 0.02132

## VSDIDYVPLKSATA(averaged) P8K (VSDIDYVKLKSATA)
  PSSM value of the substitution, averaged over the two overlapping peptides: 0.0009116

## VSDIDYVPLKSATA(averaged) P8L (VSDIDYVLLKSATA)
  PSSM value of the substitution, averaged over the two overlapping peptides: 0.135

## VSDIDYVPLKSATA(averaged) P8M (VSDIDYVMLKSATA)
  PSSM value of the substitution, averaged over the two overlapping peptides: 0.008183

## VSDIDYVPLKSATA(averaged) P8N (VSDIDYVNLKSATA)
  PSSM value of the substitution, averaged over the two overlapping peptides: 0

## VSDIDYVPLKSATA(averaged) P8P
  PSSM value of the substitution, averaged over the two overlapping peptides: 0.2644

## VSDIDYVPLKSATA(averaged) P8Q (VSDIDYVQLKSATA)
  PSSM value of the substitution, averaged over the two overlapping peptides: 0

## VSDIDYVPLKSATA(averaged) P8R (VSDIDYVRLKSATA)
  PSSM value of the substitution, averaged over the two overlapping peptides: 0

## VSDIDYVPLKSATA(averaged) P8S (VSDIDYVSLKSATA)
  PSSM value of the substitution, averaged over the two overlapping peptides: 0.01035

## VSDIDYVPLKSATA(averaged) P8T (VSDIDYVTLKSATA)
  PSSM value of the substitution, averaged over the two overlapping peptides: 0

## VSDIDYVPLKSATA(averaged) P8V (VSDIDYVVLKSATA)
  PSSM value of the substitution, averaged over the two overlapping peptides: 0.009542

## VSDIDYVPLKSATA(averaged) P8W (VSDIDYVWLKSATA)
  PSSM value of the substitution, averaged over the two overlapping peptides: 0.06329

## VSDIDYVPLKSATA(averaged) P8Y (VSDIDYVYLKSATA)
  PSSM value of the substitution, averaged over the two overlapping peptides: 0

## VSDIDYVPLKSATA(averaged) S2A (VADIDYVPLKSATA)
  PSSM value of the substitution, averaged over the two overlapping peptides: 0.001505

## VSDIDYVPLKSATA(averaged) S2D (VDDIDYVPLKSATA)
  PSSM value of the substitution, averaged over the two overlapping peptides: 0

## VSDIDYVPLKSATA(averaged) S2E (VEDIDYVPLKSATA)
  PSSM value of the substitution, averaged over the two overlapping peptides: 0

## VSDIDYVPLKSATA(averaged) S2F (VFDIDYVPLKSATA)
  PSSM value of the substitution, averaged over the two overlapping peptides: 0.03202

## VSDIDYVPLKSATA(averaged) S2G (VGDIDYVPLKSATA)
  PSSM value of the substitution, averaged over the two overlapping peptides: 0.1888

## VSDIDYVPLKSATA(averaged) S2H (VHDIDYVPLKSATA)
  PSSM value of the substitution, averaged over the two overlapping peptides: 0.0001068

## VSDIDYVPLKSATA(averaged) S2I (VIDIDYVPLKSATA)
  PSSM value of the substitution, averaged over the two overlapping peptides: 0.0005487

## VSDIDYVPLKSATA(averaged) S2K (VKDIDYVPLKSATA)
  PSSM value of the substitution, averaged over the two overlapping peptides: 0.002995

## VSDIDYVPLKSATA(averaged) S2L (VLDIDYVPLKSATA)
  PSSM value of the substitution, averaged over the two overlapping peptides: 0.00224

## VSDIDYVPLKSATA(averaged) S2M (VMDIDYVPLKSATA)
  PSSM value of the substitution, averaged over the two overlapping peptides: 0.003516

## VSDIDYVPLKSATA(averaged) S2N (VNDIDYVPLKSATA)
  PSSM value of the substitution, averaged over the two overlapping peptides: 0.0353

## VSDIDYVPLKSATA(averaged) S2P (VPDIDYVPLKSATA)
  PSSM value of the substitution, averaged over the two overlapping peptides: 0.05269

## VSDIDYVPLKSATA(averaged) S2Q (VQDIDYVPLKSATA)
  PSSM value of the substitution, averaged over the two overlapping peptides: 0.003282

## VSDIDYVPLKSATA(averaged) S2R (VRDIDYVPLKSATA)
  PSSM value of the substitution, averaged over the two overlapping peptides: 0.4027

## VSDIDYVPLKSATA(averaged) S2S
  PSSM value of the substitution, averaged over the two overlapping peptides: 0.008191

## VSDIDYVPLKSATA(averaged) S2T (VTDIDYVPLKSATA)
  PSSM value of the substitution, averaged over the two overlapping peptides: 0.002842

## VSDIDYVPLKSATA(averaged) S2V (VVDIDYVPLKSATA)
  PSSM value of the substitution, averaged over the two overlapping peptides: 0

## VSDIDYVPLKSATA(averaged) S2W (VWDIDYVPLKSATA)
  PSSM value of the substitution, averaged over the two overlapping peptides: 0.0006456

## VSDIDYVPLKSATA(averaged) S2Y (VYDIDYVPLKSATA)
  PSSM value of the substitution, averaged over the two overlapping peptides: 0.2627

## VSDIDYVPLKSATA(averaged) S11A (VSDIDYVPLKAATA)
  PSSM value of the substitution, averaged over the two overlapping peptides: 0.0008274

## VSDIDYVPLKSATA(averaged) S11D (VSDIDYVPLKDATA)
  PSSM value of the substitution, averaged over the two overlapping peptides: 0.4575

## VSDIDYVPLKSATA(averaged) S11E (VSDIDYVPLKEATA)
  PSSM value of the substitution, averaged over the two overlapping peptides: 0.0007686

## VSDIDYVPLKSATA(averaged) S11F (VSDIDYVPLKFATA)
  PSSM value of the substitution, averaged over the two overlapping peptides: 0.007837

## VSDIDYVPLKSATA(averaged) S11G (VSDIDYVPLKGATA)
  PSSM value of the substitution, averaged over the two overlapping peptides: 0.0001367

## VSDIDYVPLKSATA(averaged) S11H (VSDIDYVPLKHATA)
  PSSM value of the substitution, averaged over the two overlapping peptides: 3.368e-5

## VSDIDYVPLKSATA(averaged) S11I (VSDIDYVPLKIATA)
  PSSM value of the substitution, averaged over the two overlapping peptides: 1.716e-5

## VSDIDYVPLKSATA(averaged) S11K (VSDIDYVPLKKATA)
  PSSM value of the substitution, averaged over the two overlapping peptides: 0.01931

## VSDIDYVPLKSATA(averaged) S11L (VSDIDYVPLKLATA)
  PSSM value of the substitution, averaged over the two overlapping peptides: 0.001654
